Patent publication EP3498273A1, “PHARMACEUTICAL COMPOSITION FOR MODULATING THE RESPONSE OF A GABA-A RECEPTOR” (Universität Wien, priority 2017, dated 2019)

Sequences of proteins named here, by UniProt entry; tags and fusion partners are left off. A change or cut given only in a name is not applied to a line headed by its entry.
UniProt P14867: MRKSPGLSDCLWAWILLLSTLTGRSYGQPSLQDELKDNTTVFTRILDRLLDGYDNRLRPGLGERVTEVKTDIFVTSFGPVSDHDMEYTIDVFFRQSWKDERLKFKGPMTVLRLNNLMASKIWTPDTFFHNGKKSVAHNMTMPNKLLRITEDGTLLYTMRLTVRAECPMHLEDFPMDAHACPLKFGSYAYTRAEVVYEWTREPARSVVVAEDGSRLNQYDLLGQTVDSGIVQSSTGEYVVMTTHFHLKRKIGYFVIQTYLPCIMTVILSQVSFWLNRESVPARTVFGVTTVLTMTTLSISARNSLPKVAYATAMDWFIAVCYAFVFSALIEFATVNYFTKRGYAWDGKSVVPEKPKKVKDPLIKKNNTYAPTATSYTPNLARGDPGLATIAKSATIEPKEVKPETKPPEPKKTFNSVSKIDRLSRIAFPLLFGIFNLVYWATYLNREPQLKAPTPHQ
UniProt P28472: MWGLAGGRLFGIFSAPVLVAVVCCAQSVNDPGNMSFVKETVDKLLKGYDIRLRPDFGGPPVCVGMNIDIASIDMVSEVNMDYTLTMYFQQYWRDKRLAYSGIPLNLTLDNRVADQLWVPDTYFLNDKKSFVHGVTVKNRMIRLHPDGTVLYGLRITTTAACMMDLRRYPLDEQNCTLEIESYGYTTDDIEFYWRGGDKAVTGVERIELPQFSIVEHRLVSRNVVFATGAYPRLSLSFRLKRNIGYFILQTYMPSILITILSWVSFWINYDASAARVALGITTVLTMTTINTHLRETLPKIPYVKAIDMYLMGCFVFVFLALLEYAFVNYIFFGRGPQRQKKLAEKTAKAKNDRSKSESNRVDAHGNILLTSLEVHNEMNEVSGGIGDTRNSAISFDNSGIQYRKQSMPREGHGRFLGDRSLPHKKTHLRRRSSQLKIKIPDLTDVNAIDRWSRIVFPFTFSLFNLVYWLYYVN

Biological target: GABAA receptors composed of α1β3γ2S subunits (Homo sapiens, UniProt P14867+P28472)
Experiment: Two-microelectrode voltage clamp: enhancement of GABA-induced chloride currents (IGABA) through receptors expressed in Xenopus laevis oocytes
Settings: Table 6, α1β3γ2s; maximal IGABA enhancement; unit not given

Compound CC(=C(C#N)C#N)c1ccc(Cl)cc1Cl has an Emax of 1931 ± 324.
